Compound activity as filed in PubChem.
ERp5 block: blocks human ERp5 reductase activity on insulin | Q15084 | ERp5 insulin aggregation, absorbance 650 nm, 90 min | inhibition, % at 9.99 µM | actives 0.05% (n = 350,000) | AID 651711;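 active means mean replicate inhibition above about 25%, with every replicate also reaching it, limit read from the data, passing the limit was not always enough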
UUG fidelity: alters start codon recognition fidelity in yeast; S. cerevisiae UUG-firefly luciferase reporter, luminescence/redox ratio; activity score, % at 18.7 µM; actives 0.13% (n = 350,000);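 active means replicate mean at a twofold rise or more, about +100% in these data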;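 further: firefly luciferase made from a UUG start codon reports start codon fidelity; reporter light over untreated wells divided by growth signal over untreated wells; some hits fall short of that in this replicate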
PglD inh: PglD (C. jejuni) enzyme inhibition. actives 0.098% (n = 360,000). inhibition, % at 12.5 µM. AID 602405. purified PglD enzyme, DTNB colorimetric CoA detection; in the data active means inhibition above about 16%, passing the limit was not always enough
PDI turbidity: inhibitors of human protein disulfide isomerase; PDI insulin aggregation turbidity, A650, 90 min; inhibition, % at 10 µM; actives 0.052% (n = 350,000);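 active means mean inhibition across replicates of 30% or more, whatever share of single replicates reach that level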
ARNT-TACC3 inh: ARNT/TACC3 interaction disruption; Q9Y6A5; actives 0.66% (n = 390,000); inhibition, % at 9.99 µM; AlphaScreen His-ARNT PAS-B/GST-TACC3 binding, luminescence; TACC3 fragment carries E629A point mutation;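 active means mean inhibition of replicates at least 50% and at least half of replicates each reaching 50%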
FGF22 binding-1: FGF22 (human) thermal shift binding. Q9HCT0. recombinant FGF22 thermal shift, SYPRO orange fluorescence; percent of sucrose octasulfate shift, DMSO zero. activity (Tm shift, normalised), % at 9.99 µM. actives 1.5% (n = 340,000). AID 651658;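 active means mean Tm shift, scaled 0 neutral to 100 positive control, at about 1.3% or above, every replicate too, limit read from the data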
FGF22 binding-2: FGF22 (human) binding in thermal shift | actives 2% (n = 1,000) | recombinant FGF22 thermal shift, SYPRO orange fluorescence | thermal shift activity, °C (ΔTm) at 38 µM | shares compounds with FGF22 binding-1;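 active means fitted rise in melting shift crosses a set limit at or below the top valid dose tested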
TSA no protein: shows thermal shift signal without protein, FGF22 counter-screen. shares compounds with FGF22 binding-1. compound-only SYPRO orange thermal shift counter-screen, no protein. AC50, µM (highest dose often 38 µM). actives 2% (n = 1,000). AID 743019;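 active means rising signal whose fitted curve reaches the 0.54 level within the top valid dose, showing a melting point, actives reach about 13 µM in these data; inactive means the rest, including activity in the opposite direction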; further: value is where the raw curve crosses a fixed level and not half-maximal
Of the large screens only hits and unclear results are named; the others gave an inactive call (follow-up assays come after a bar, where they were run); ! = not active in a repeat. The list is not random: actives were taken first. Their share in the collection is about 1.9%.

C[C@H](CO)N1C[C@H](C)[C@@H](CN(C)C(=O)OCc2ccccc2)OCc2cn(nn2)CCCC1=O	FGF22 binding-1 17! | FGF22 binding-2 inactive | TSA no protein inactive
COc1ccc(NC(=O)Nc2cccc3c2O[C@H](CN(C)S(=O)(=O)c2ccccc2)[C@H](C)CN([C@H](C)CO)C3=O)cc1	none (no result: PDI turbidity)
CCC(CC)CN1CCC(CN2C(=O)C(=O)NC[C@@H]2CC(C)C)CC1	FGF22 binding-1 1.9 (no result: PDI turbidity, ARNT-TACC3 inh) | TSA no protein inactive
O=C(NN=Cc1ccc(O)cc1)c1ccccc1NS(=O)(=O)c1cccs1	FGF22 binding-1 1.8 | FGF22 binding-2 inactive | TSA no protein inactive
O=C(O)c1ccc(C=NNC(=O)c2ccccc2NS(=O)(=O)c2cccs2)cc1	none (no result: ARNT-TACC3 inh, FGF22 binding-1)
COc1ccc(S(=O)(=O)Nc2ccc3c(c2)C(=O)N([C@H](C)CO)C[C@@H](C)[C@H](CN(C)S(=O)(=O)c2ccc(OC)cc2)OCCCC[C@H](C)O3)cc1	none (no result: ERp5 block, PDI turbidity)
NS(=O)(=O)c1ccc2c(c1)C(=NO)c1cc(S(N)(=O)=O)ccc1-2	FGF22 binding-1 28 | FGF22 binding-2 inactive | TSA no protein inactive
COc1ccc2c3c([nH]c2c1)[C@H](CO)N(C(=O)NC1CCCC1)CC31CN(S(C)(=O)=O)C1	none (no result: UUG fidelity, PglD inh, PDI turbidity, ARNT-TACC3 inh)
C=C1[C@@H](O)[C@H](Cc2ccccc2)N(Cc2ccccc2Br)S1(=O)=O	FGF22 binding-1 1.4 | FGF22 binding-2 inactive | TSA no protein inactive
Cc1ccccc1CN1[C@@H](Cc2ccccc2)COCCS1(=O)=O	none (no result: ERp5 block, FGF22 binding-1)
O=C(C[C@H]1CC[C@@H](NC(=O)C2CCC2)[C@H](CO)O1)NCCCN1CCOCC1	none (no result: PDI turbidity)
CNC[C@H]1Oc2ccc(NC(=O)Nc3ccc(C(F)(F)F)cc3)cc2CC(=O)N([C@@H](C)CO)C[C@H]1C	none (no result: PDI turbidity)
COCc1cn(CC[C@H]2CC[C@H](NC(=O)c3ccc(F)cc3)[C@H](CO)O2)nn1	none (no result: PDI turbidity)
COc1cccc(NC(=O)COc2coc(CN3CCN(c4ccccc4)CC3)cc2=O)c1	none
CCc1ccc(NC(=O)COc2coc(CN3CCN(c4ccccc4)CC3)cc2=O)cc1	FGF22 binding-1 2.6 | FGF22 binding-2 inactive | TSA no protein inactive
COc1cc(OC)c(C(=O)OCC(=O)NC2CCCCCCC2)cc1OC	none (no result: UUG fidelity, PglD inh)
COc1cc(OC)c(C(=O)OCC(=O)NCC2CCCCC2)cc1OC	FGF22 binding-1 9.3 | FGF22 binding-2 inactive | TSA no protein inactive
COC(=O)C[C@H]1CC[C@H]2[C@@H](COc3ccc(NC(=O)NC(C)C)cc3C(=O)N2C)O1	none (no result: PDI turbidity, FGF22 binding-1)
CN(C)S(=O)(=O)c1ccc(Cl)c(C(=O)Nc2cccc([N+](=O)[O-])c2)c1	none (no result: UUG fidelity, PglD inh)
COc1ccc(NS(=O)(=O)c2cccc(C(=O)NNC(=O)c3ccccc3O)c2)cc1	FGF22 binding-1 2.0 (no result: UUG fidelity, PglD inh) | FGF22 binding-2 inactive | TSA no protein inactive
O=C(CC(=O)c1ccccc1)Nc1cccc([N+](=O)[O-])c1	FGF22 binding-1 1.8 (no result: ARNT-TACC3 inh) | FGF22 binding-2 inactive | TSA no protein inactive
O=C(O)c1ccc(NS(=O)(=O)c2ccc(C(=O)Nc3ccccc3)cc2)cc1	none
O=C(Cc1cccc([N+](=O)[O-])c1)Nc1ccccc1	none (no result: ARNT-TACC3 inh)
O=C(O)c1ccc(NC(=O)c2cccc(S(=O)(=O)Nc3ccc(C(=O)O)cc3)c2)cc1	FGF22 binding-1 2.1 | FGF22 binding-2 inactive | TSA no protein inactive
O=C(O)c1cccc(NS(=O)(=O)c2ccc(Cl)c(C(=O)Nc3cccc([N+](=O)[O-])c3)c2)c1	FGF22 binding-1 1.8 (no result: UUG fidelity, PglD inh) | FGF22 binding-2 inactive | TSA no protein inactive
COc1ccccc1NC(=O)N1CCCCN2[C@H](CO)[C@H](c3ccc(-c4ccccc4)cc3)[C@H]2C1	none (no result: PDI turbidity)
COc1ccc(CNC(=O)C[C@H]2CC[C@@H](NS(=O)(=O)c3cccc(OC)c3)[C@H](CO)O2)cc1	none (no result: PDI turbidity)
O=C(Nc1cccc(O)c1)c1cnn2cccnc12	none
O=C(Nc1ccc2c(c1)OCO2)c1cnn2cccnc12	FGF22 binding-1 1.9 | FGF22 binding-2 inactive | TSA no protein inactive
C/C(=N\NC(=O)c1nnn(-c2nonc2N)c1CSc1ccc(C)cc1)c1cccnc1	FGF22 binding-1 1.7 (no result: ARNT-TACC3 inh) | FGF22 binding-2 inactive | TSA no protein inactive
Nc1nonc1-n1nnc(C(=O)N/N=C/c2cccnc2)c1CSc1ccc(Cl)cc1	FGF22 binding-1 2.7 | FGF22 binding-2 inactive | TSA no protein inactive
Nc1nonc1-n1nnc(C(=O)N/N=C/c2cccnc2)c1CSc1ccccc1	none
CC1CCN(Cc2c(C(=O)N/N=C/c3ccc(OC(C)C)cc3)nnn2-c2nonc2N)CC1	FGF22 binding-1 1.5 | FGF22 binding-2 inactive | TSA no protein inactive
Cc1noc(C)c1NC(=O)N(C)C[C@H]1Oc2c(NC(=O)Nc3ccc(C(F)(F)F)cc3)cccc2C(=O)N([C@H](C)CO)C[C@H]1C	none (no result: PDI turbidity)
O=C(C[C@H]1CC[C@@H]2[C@H](COC[C@@H](O)CN2S(=O)(=O)c2ccc(Cl)cc2)O1)N[C@H]1CCN(Cc2ccccc2)C1	none (no result: PDI turbidity)
O=S(=O)(Nc1cc(Cl)ccc1-n1cncn1)c1ccc(F)cc1	FGF22 binding-1 1.5 | FGF22 binding-2 inactive | TSA no protein inactive
CCOCCCNS(=O)(=O)c1ccc(NC(=O)c2ccccc2)cc1	FGF22 binding-1 1.8 | FGF22 binding-2 inactive | TSA no protein inactive
CCOCCCNS(=O)(=O)c1ccccc1	none (no result: ERp5 block, FGF22 binding-1)
C/C(=N\NC(=O)c1cccc(S(=O)(=O)N2CCOCC2)c1)c1ccc(OC(F)F)cc1	FGF22 binding-1 1.6 (no result: UUG fidelity, PglD inh) | FGF22 binding-2 inactive | TSA no protein inactive
COc1ccc(C(=O)Nc2cc(Cl)ccc2N2CCOCC2)cc1S(=O)(=O)N1CCOCC1	none
COc1ccc(C(=O)Nc2ccccc2N2CCOCC2)cc1S(=O)(=O)N1CCOCC1	FGF22 binding-1 21 | FGF22 binding-2 inactive | TSA no protein inactive
COc1ccccc1-c1ccc([C@@H]2[C@H]3CN(C(=O)c4cccnc4)CCCCN3[C@H]2CO)cc1	none (no result: PDI turbidity)
O=C(NCCc1c[nH]c2ccccc12)c1ccccc1	none
O=C(CCc1c[nH]c2ccccc12)Nc1ccc(Oc2cccnc2)cc1	FGF22 binding-1 1.5 (no result: UUG fidelity, PglD inh, PDI turbidity, ARNT-TACC3 inh) | FGF22 binding-2 inactive | TSA no protein inactive
N#CCC(=O)Nc1ccc(C(=O)NCCc2c[nH]c3ccccc23)cc1	FGF22 binding-1 1.4 | FGF22 binding-2 inactive | TSA no protein inactive
Cc1cc(NC(=O)CCc2c[nH]c3ccccc23)ccc1Oc1cccnc1	none (no result: UUG fidelity, PglD inh, PDI turbidity, ARNT-TACC3 inh)
COc1ccc(NC(=O)/C=C/C(=O)O)c([N+](=O)[O-])c1	FGF22 binding-1 2.2 | FGF22 binding-2 inactive | TSA no protein inactive
Cc1ccc(NC(=O)/C=C/C(=O)O)c([N+](=O)[O-])c1	none (no result: ERp5 block, ARNT-TACC3 inh, FGF22 binding-1)
